Measured values reported in article PMC12363935, “Unc-51 Like Kinase 3 (ULK3) is essential for autophagy and cell survival in multiple myeloma” (Research Square, 2025).

System: primary CD138+ MM cells
Experiment: EMMA ex vivo platform, live cell imaging, 96 hours, collagen matrix with bone marrow stroma and patient plasma
Type: cell-based
Set-up: scale not given here
Excerpt: For clinical robustness, we tested the activity of MA9 in MM patient samples using our ex vivo mathematical myeloma advisor (EMMA) platform (Supplementary Table 1). […]
For these assays, we used a novel EMMA platform developed at Moffitt. Further details are included in the supplemental Materials. […]
400 Ex vivo drug sensitivity characterization
401 An ex vivo assay was used to quantify the chemosensitivity of primary MM cells. Fresh BM
402 aspirate cells were enriched for CD138+ expression using Miltenyi (Bergisch Gladbach, Germany)
MM cells (CD138+) were seeded in Corning
404 Cell BIND 384 well plates (Corning, NY) with collagen I and previously established human-
407 inactivated), penicillin/streptomycin, and patient-derived plasma (10%, freshly obtained from
409 added using a robotic plate handler so that every drug/combination was tested at 5 (fixed
410 concentration ratio, for combinations) concentrations (1:3 serial dilution) in two replicates.
411 Negative controls (supplemented growth media with and without the vehicle control dimethyl
412 sulfoxide [DMSO]) were included, as well as positive controls for each drug (cell line MM1.S at
413 highest drug concentration). Plates were placed in a motorized stage microscope (EVOS Auto FL,
414 Life Technologies, Carlsbad, CA) equipped with an incubator and maintained at 5% CO2 and 37
415 °C. […]
Digital image analysis computes the percent
418 viability of MM cells for each time point and experimental condition (drug and concentration)

SMILES: CC(C)C[C@H](NC(=O)[C@H](Cc1ccccc1)NC(=O)c1cnccn1)B(O)O [BTZ, bortezomib]
- AUC (Pt653, LRMM): 54.219
- AUC (Pt718, SMOL): 53.735
- AUC (Pt865, LRMM): 54.103
- AUC (Pt885, NDMM): 53.664
- AUC (Pt945, LRMM): 55.241
- AUC (Pt948, LRMM): 58.089
- AUC (Pt951, ERMM): 57.542
